In PMC7723054:
This is one part of the list.

T1: LIN28A (human?, UniProt Q9H9Z2 1-209)
T1 sequence: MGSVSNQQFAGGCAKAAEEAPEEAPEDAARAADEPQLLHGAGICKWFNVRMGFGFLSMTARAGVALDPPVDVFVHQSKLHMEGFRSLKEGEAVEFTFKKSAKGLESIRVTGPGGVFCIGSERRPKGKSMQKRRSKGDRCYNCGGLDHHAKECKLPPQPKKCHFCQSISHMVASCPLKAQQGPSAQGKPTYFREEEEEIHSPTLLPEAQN

T2: CIRBP (Homo sapiens, UniProt Q14011 1-172)
T2 sequence: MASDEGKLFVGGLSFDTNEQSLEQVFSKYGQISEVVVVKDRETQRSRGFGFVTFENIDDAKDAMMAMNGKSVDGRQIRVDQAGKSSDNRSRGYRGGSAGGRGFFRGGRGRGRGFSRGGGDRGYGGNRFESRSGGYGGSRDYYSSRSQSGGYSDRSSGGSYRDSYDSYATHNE

T3: DHX36 (Homo sapiens, UniProt Q9H2U1 1-1008)
T3 sequence: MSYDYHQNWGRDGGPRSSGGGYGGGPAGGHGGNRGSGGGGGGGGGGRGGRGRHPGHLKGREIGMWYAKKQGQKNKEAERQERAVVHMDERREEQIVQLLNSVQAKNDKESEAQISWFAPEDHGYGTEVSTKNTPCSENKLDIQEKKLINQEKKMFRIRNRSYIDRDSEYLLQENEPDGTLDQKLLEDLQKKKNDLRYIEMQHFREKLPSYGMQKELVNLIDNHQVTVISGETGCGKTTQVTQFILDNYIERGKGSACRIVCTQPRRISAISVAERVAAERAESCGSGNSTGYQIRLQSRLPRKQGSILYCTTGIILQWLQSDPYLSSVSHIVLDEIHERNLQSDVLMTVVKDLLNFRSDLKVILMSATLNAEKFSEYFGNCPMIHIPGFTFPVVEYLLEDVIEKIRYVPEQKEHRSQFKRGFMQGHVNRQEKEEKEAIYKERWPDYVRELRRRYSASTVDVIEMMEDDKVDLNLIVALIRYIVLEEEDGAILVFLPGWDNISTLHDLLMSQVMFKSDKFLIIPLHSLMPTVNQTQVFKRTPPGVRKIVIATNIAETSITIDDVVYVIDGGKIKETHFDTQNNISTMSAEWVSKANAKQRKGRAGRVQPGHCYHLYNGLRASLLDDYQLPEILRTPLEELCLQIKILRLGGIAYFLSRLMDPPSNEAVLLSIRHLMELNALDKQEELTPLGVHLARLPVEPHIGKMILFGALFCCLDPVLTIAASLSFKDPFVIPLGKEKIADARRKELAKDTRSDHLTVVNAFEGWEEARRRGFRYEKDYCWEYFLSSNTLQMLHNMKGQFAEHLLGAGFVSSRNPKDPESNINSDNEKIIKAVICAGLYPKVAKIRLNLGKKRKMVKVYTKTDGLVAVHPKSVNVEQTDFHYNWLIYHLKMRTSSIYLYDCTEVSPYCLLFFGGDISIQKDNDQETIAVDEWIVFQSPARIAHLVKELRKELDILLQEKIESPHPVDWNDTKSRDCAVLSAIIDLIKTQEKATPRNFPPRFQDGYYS

B1: hsa-mir-5582 (structured_RNA)
RNA: GGGAAUAUCGCUGUCGCCCCGACUUACUGGUGUACGAAGUUUCAGCUAUAGCUACAUCAGUUAUAACUAUAUCAGUUAAAGCUGAAGCUUCGUGCAC
B2: hsa-mir-6084 (structured_RNA)
RNA: GGGAAGAACUACGGGCAUAACGCAGUUUGGUGUACGAAGUUUCAGCCGGAGCCUCGCAGGGUCGGGCUCGGGCUCCCUAACCGUCUCCGCUUCUUCGCUGAAGCUUCGUGCAC
B3: hsa-mir-224 (structured_RNA)
RNA: GGGACCACGGGUAGGAACAUAGCAAGCUGGUGUACGAAGUUUCAGCCGUUUAGUAGAUGAUUGUGCAUUGUUUCAAAAUGGCUGAAGCUUCGUGCAC
B4: hsa-mir-4461 (structured_RNA)
RNA: GGGAAAACAGCGUACCGCCACUAGAAGGGGUGUACGAAGUUUCAGCAGGCCAUACGUGUUGGAGAUUGCUGAAGCUUCGUGCAC
B5: hsa-mir-550b-1 (structured_RNA)
RNA: GGGAGUGAUCGUUAGACAAUUAGCAGUAGGUGUACGAAGUUUCAGCAAGACACUAUCUUACAACAACAGGGCUCUUGCUGAAGCUUCGUGCAC
B6: hsa-mir-521-1 (structured_RNA)
RNA: GGGACGGGUAUCGUUUGUCACGCCUAGAGGUGUACGAAGUUUCAGCCUUUCUGUUGUCUAAAAGAAAAGAACGGCUGAAGCUUCGUGCAC
B7: hsa-mir-3118-1 (structured_RNA)
RNA: GGGAAAGCCCGAUAAGGACAACCGAUCGGGUGUACGAAGUUUCAGCCACACACAAUCACCAUGUGGCUGAAGCUUCGUGCAC
B8: hsa-mir-6764 (structured_RNA)
RNA: GGGAAUACUAAGAUGGUAUCGAGCCACAGGUGUACGAAGUUUCAGCGAGUUGCUGAGUGGGUUGAUCUCGCUGAAGCUUCGUGCAC
B9: hsa-mir-2682 (structured_RNA)
RNA: GGGACAGGCUCCUCGUGAAAAGAGUCCAGGUGUACGAAGUUUCAGCGACGUCCAAUCUCUUUGGGACGCCGCUGAAGCUUCGUGCAC
B10: hsa-mir-4667 (structured_RNA)
RNA: GGGAGAGGAGCAUAGGCAUGGAAGCCUCGGUGUACGAAGUUUCAGCGAACCCAAGAAAAGCUGACUUGGAGGUCCCGCUGAAGCUUCGUGCAC
B11: hsa-mir-3907 (structured_RNA)
RNA: GGGCGUAUUGUGCUUACAUCGCAGACGUGGUGUACGAAGUUUCAGCGCCUGCCCUGAGUCCCCCAGCAGGUGCUGAAGCUUCGUGCAC
B12: hsa-mir-4758 (structured_RNA)
RNA: GGGAAGGCGUGUGAGACCCUAUAAUCUGGGUGUACGAAGUUUCAGCGCUGGAGUAAGGGCACGCCCGGGGCUGCGCUGAAGCUUCGUGCAC
B13: hsa-mir-5088 (structured_RNA)
RNA: GGGAACAUUAAGGUAUGAACCCGCCAGAGGUGUACGAAGUUUCAGCUGGAGGUGAUGGGGGCAGGGGAUGGGUCUCACCCUCCCGCUGAAGCUUCGUGCAC
B14: hsa-mir-4277 (structured_RNA)
RNA: GGGAAAGACCCUCAGUGAUCGGUAGAGAGGUGUACGAAGUUUCAGCACACUGGGCUGCCCCCACUGCCCAGUGCGCUGAAGCUUCGUGCAC
B15: hsa-mir-6808 (structured_RNA)
RNA: GGGAGUCGUAGACCUCGGGACCGAUACAGGUGUACGAAGUUUCAGCCCAUGGGGGCCUUGCUGUGUGCUGAAGCUUCGUGCAC
B16: hsa-mir-1915 (structured_RNA)
RNA: GGGACCCGCUGUAAAUGUUCGGGGUUUUGGUGUACGAAGUUUCAGCGGGCCGUGCACCCGUGGGCCCCGCUGAAGCUUCGUGCAC
B17: hsa-mir-365a (structured_RNA)
RNA: GGGAGUAUCACCAUAAUGGCAUUGGUCGGGUGUACGAAGUUUCAGCAGAUGUGUUUCCAUUCCACUAUCAUAAUGCUGAAGCUUCGUGCAC
B18: hsa-mir-5699 (structured_RNA)
RNA: GGGACCUUAUAACCAGCAAGUCCAAAACGGUGUACGAAGUUUCAGCCAAGAGGUGUGAGCCACACACACGCCUGGCCUCCUGGCUGAAGCUUCGUGCAC
B19: hsa-mir-4522 (structured_RNA)
RNA: GGGACGCAAUUUGGUCAGGACAUGCAUAGGUGUACGAAGUUUCAGCGAUCCAGCCCAGGCUGGUUCCGCUGACGCUGAAGCUUCGUGCAC
B20: hsa-mir-105-2 (structured_RNA)
RNA: GGGACAUCCGAGACCACCACGGUUAAGUGGUGUACGAAGUUUCAGCCUGUGGUGGCUGCUUAUGCACCACGGGCUGAAGCUUCGUGCAC
B21: hsa-mir-3686 (structured_RNA)
RNA: GGGAAACAGGGCAUCGGGCGAGUCUUAUGGUGUACGAAGUUUCAGCAGAUCACUUUUCUGCACUGGACAGUGAUCUGCUGAAGCUUCGUGCAC
B22: hsa-mir-302d (structured_RNA)
RNA: GGGAGAGGGGCCAUCAAAACUUAGAGGAGGUGUACGAAGUUUCAGCCUUGCUGUGACAUGACAAAAAUAAGGCUGAAGCUUCGUGCAC
B23: hsa-mir-7974 (structured_RNA)
RNA: GGGAACAAGUGAGGCGGUACUUAAAAUAGGUGUACGAAGUUUCAGCACCACCCAGGCCUUAUGGCUUCAUAGCUGAAGCUUCGUGCAC

Biological target: U1A (Homo sapiens, UniProt P09012)
Assay: FOREST: bead pull-down of RNA structure library v1, barcode microarray; U1A/LIN28A: 20 mM HEPES pH 7.5, 80 mM KCl, 20 mM NaCl, 10% glycerol, 2 mM DTT, 0.1 ug/uL BSA, 4 C; BG4/CIRBP/DHX36: 10 mM Tris-HCl pH 7.5, 100 mM KCl (or LiCl),; high values mean tight binding

B1 and B2 are the same in binding signal: 0.456 z-score for the first, 0.456 z-score for the second.

First: B3
Second: B4
The binding signal of the first is higher: 0.454 z-score for the first, 0.42 z-score for the second.

First: B5
Second: B6
The binding signal of the first is higher: 0.456 z-score for the first, 0.448 z-score for the second.

First: B7
Second: B8
The binding signal of the first is lower: 0.427 z-score for the first, 0.435 z-score for the second.

B9 and B10 are the same in binding signal: 0.45 z-score for the first, 0.45 z-score for the second.

Going from B11 to B12, the binding signal rises from 0.439 z-score to 0.449 z-score.

Compared with B13, B14 is higher in binding signal: 0.431 z-score for the first, 0.441 z-score for the second.

First: B15
Second: B16
The binding signal of the first is lower: 0.43 z-score for the first, 2.1 z-score for the second.

Compared with B17, B18 is higher in binding signal: 0.44 z-score for the first, 2.1 z-score for the second.

Going from B19 to B20, the binding signal falls from 0.444 z-score to 0.437 z-score.

Compared with B21, B22 is lower in binding signal: 0.455 z-score for the first, 0.42 z-score for the second.

For B23, the binding signal was 0.455 z-score.

Biological target: T1, LIN28A
Assay: as above

First: B1
Second: B2
The binding signal of the first is higher: 0.19 z-score for the first, 0.115 z-score for the second.

Compared with B3, B4 is higher in binding signal: -1.15 z-score for the first, 0.462 z-score for the second.

Going from B5 to B6, the binding signal falls from 1.26 z-score to 0.00803 z-score.

Compared with B7, B8 is higher in binding signal: -0.643 z-score for the first, 1.1 z-score for the second.

Compared with B9, B10 is higher in binding signal: -0.17 z-score for the first, 1.1 z-score for the second.

Compared with B11, B12 is higher in binding signal: -0.88 z-score for the first, 0.301 z-score for the second.

Going from B13 to B14, the binding signal falls from 1.04 z-score to -3.44 z-score.

Compared with B15, B16 is lower in binding signal: 0.49 z-score for the first, -0.132 z-score for the second.

Compared with B17, B18 is higher in binding signal: 0.218 z-score for the first, 0.908 z-score for the second.

Going from B19 to B20, the binding signal falls from 1.34 z-score to -0.598 z-score.

First: B21
Second: B22
The binding signal of the first is lower: -0.237 z-score for the first, 0.373 z-score for the second.

B23 showed a binding signal of 0.507 z-score.

Biological target: T2, CIRBP
Assay: as above

Going from B1 to B2, the binding signal falls from -0.414 z-score to -0.672 z-score.

First: B3
Second: B4
The binding signal of the first is lower: 0.00907 z-score for the first, 0.474 z-score for the second.

Compared with B5, B6 is lower in binding signal: 0.668 z-score for the first, -0.621 z-score for the second.

Compared with B7, B8 is higher in binding signal: -0.46 z-score for the first, 3 z-score for the second.

Compared with B9, B10 is higher in binding signal: -0.562 z-score for the first, -0.0182 z-score for the second.

Going from B11 to B12, the binding signal rises from -1.48 z-score to -0.416 z-score.

Compared with B13, B14 is lower in binding signal: 2.11 z-score for the first, -3.23 z-score for the second.

Going from B15 to B16, the binding signal falls from 0.647 z-score to -1.14 z-score.

Compared with B17, B18 is lower in binding signal: 0.25 z-score for the first, -0.365 z-score for the second.

First: B19
Second: B20
The binding signal of the first is higher: 1.38 z-score for the first, -0.196 z-score for the second.

Going from B21 to B22, the binding signal falls from 0.549 z-score to -0.479 z-score.

Binder B23 has a binding signal of 0.384 z-score.

Biological target: T3, DHX36
Assay: as above

First: B1
Second: B2
The binding signal of the first is lower: -0.619 z-score for the first, 0.479 z-score for the second.

Going from B3 to B4, the binding signal rises from -0.92 z-score to 0.686 z-score.

Going from B5 to B6, the binding signal rises from 0.0263 z-score to 0.235 z-score.

Compared with B7, B8 is higher in binding signal: -0.6 z-score for the first, 0.718 z-score for the second.

First: B9
Second: B10
The binding signal of the first is lower: -0.478 z-score for the first, 1.37 z-score for the second.

Compared with B11, B12 is lower in binding signal: 0.0669 z-score for the first, -0.392 z-score for the second.

First: B13
Second: B14
The binding signal of the first is higher: 3.77 z-score for the first, -1.75 z-score for the second.

Going from B15 to B16, the binding signal falls from 0.0951 z-score to -0.872 z-score.

Going from B17 to B18, the binding signal rises from 1.17 z-score to 1.25 z-score.

Compared with B19, B20 is lower in binding signal: 0.765 z-score for the first, -0.234 z-score for the second.

Compared with B21, B22 is lower in binding signal: -0.0395 z-score for the first, -0.621 z-score for the second.

B23 gave a binding signal of -1.21 z-score.
